Assay [1] concerns the target human α3β4 nicotinic acetylcholine receptor (Homo sapiens, UniProt P30926+P32297). The experiment in a line: IonWorks Barracuda (IWB) population patch clamp, antagonist mode, α3β4-CHO. The format is cell-based. (Patch clamp records ionic current or voltage across a cell membrane.)
Assay [2] has as its target human α3β4α5 nicotinic acetylcholine receptor (Homo sapiens, UniProt P30532+P30926+P32297). The experiment in a line: IWB population patch clamp, antagonist mode, α3β4α5-CHO clones. Format: cell-based.

Protein sequences, listed by entry. Tags and fused reporters are not part of them. Residues count along the entry.
UniProt P30926, 22-498: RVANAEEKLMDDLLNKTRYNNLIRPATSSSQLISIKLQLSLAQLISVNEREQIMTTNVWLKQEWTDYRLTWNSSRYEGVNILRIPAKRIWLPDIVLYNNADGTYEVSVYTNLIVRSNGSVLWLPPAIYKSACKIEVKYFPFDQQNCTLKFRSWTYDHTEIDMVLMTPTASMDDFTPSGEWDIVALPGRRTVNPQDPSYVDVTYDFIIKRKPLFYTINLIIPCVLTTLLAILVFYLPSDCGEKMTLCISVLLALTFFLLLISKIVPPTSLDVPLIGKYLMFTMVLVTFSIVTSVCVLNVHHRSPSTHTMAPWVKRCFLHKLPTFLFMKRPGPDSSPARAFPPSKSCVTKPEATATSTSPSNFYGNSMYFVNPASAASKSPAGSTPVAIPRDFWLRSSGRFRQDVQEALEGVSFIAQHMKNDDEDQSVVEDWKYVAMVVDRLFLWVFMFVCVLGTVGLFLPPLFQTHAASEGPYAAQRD
UniProt P32297, 32-505: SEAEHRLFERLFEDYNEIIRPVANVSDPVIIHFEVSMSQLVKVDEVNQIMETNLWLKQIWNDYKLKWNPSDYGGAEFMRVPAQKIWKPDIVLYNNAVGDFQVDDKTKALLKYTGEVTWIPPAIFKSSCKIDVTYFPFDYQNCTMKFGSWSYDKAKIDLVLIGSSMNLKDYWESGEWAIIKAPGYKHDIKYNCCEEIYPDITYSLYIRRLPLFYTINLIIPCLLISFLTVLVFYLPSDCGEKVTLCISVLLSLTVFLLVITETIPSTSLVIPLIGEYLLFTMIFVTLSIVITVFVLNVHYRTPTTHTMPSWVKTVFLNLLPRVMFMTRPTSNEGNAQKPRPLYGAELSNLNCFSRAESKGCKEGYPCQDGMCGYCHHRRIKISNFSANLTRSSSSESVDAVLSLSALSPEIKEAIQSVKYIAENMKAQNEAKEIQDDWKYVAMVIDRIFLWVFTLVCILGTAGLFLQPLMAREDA
UniProt P30532, 23-468: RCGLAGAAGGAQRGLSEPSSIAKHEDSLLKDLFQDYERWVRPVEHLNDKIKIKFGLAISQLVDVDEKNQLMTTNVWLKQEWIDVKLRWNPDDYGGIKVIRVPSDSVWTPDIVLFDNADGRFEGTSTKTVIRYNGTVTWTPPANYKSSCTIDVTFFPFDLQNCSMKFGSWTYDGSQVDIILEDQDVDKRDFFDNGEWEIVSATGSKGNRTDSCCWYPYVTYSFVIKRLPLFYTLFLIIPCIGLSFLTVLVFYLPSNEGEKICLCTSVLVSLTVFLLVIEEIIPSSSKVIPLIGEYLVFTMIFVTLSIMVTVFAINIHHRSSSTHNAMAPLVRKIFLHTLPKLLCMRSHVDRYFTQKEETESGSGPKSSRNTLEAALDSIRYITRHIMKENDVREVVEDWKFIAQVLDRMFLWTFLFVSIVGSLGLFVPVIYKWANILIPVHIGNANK

As a reminder, the IC50 is the point on the concentration scale where inhibition reaches its midpoint. The low end stands for higher potency, the high end for lower potency. Regarding `CNC1(C)C2CCC(C2)C1(C)C` (centres unmarked) [Mecamylamine, mecamylamine], the IC50 in assay [1] came to 2.7 ± 0.5 µM; in assay [2] it was 1.1 ± 0.4 µM.

These data come from article PMC4991607 (Assay and Drug Development Technologies, 2016).
